{
  "source": "paper PMC7207076",
  "about": "(Biochemistry, 2020)",
  "target": "T1, KDM5A1–797 (Homo sapiens, UniProt P29375)",
  "T1 sequence (P29375 1-797)": "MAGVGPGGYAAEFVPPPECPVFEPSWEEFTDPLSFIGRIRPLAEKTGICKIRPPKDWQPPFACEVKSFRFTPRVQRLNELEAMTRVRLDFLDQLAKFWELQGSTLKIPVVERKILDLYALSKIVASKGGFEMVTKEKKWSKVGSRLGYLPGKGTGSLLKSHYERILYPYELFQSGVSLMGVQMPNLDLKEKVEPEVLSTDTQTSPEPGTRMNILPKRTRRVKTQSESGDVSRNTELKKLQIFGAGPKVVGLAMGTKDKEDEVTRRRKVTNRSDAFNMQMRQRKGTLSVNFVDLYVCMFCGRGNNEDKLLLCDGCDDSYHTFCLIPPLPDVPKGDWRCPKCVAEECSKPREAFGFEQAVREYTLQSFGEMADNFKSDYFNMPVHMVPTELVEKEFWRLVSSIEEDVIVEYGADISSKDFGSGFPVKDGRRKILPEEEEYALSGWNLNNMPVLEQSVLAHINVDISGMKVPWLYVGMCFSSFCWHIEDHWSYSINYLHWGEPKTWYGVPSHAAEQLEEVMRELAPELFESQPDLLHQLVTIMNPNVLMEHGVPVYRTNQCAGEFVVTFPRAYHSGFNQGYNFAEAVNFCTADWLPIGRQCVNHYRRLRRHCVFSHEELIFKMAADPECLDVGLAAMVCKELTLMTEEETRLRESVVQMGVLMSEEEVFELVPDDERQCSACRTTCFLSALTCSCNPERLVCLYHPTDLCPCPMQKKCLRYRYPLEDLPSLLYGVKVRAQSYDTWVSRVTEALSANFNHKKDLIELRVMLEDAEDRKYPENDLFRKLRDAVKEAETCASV",
  "assay_type": "biochemical",
  "settings": "H3K4me3 basic patch (K14-K18) deletion/mutant/acetylated peptides",
  "data": [
    {"substance": "18mer-K14acK18ac: 18mer H3K4me3 peptide with acetylated lysines 14 and 18", "values": [
      {"measurement": "fold increase of KMapp compared to the 18mer WT peptide", "value": 4, "unit": "fold"}
    ]}
  ]
}
